What was measured:
[1] = target: Human vitronectin receptor (αvβ3) (Homo sapiens, UniProt P05106+P06756); experiment: Vitronectin adhesion assay (solid phase receptor assay, competition with biotinylated vitronectin); type: binding; conditions: read-out: AvB3 IC50; tested form: TFA
[2] = target: Human fibrinogen receptor (αIIbβ3) (Homo sapiens, UniProt P05106+P08514); experiment: Purified IIb/IIIa receptor assay (solid phase receptor assay, competition with biotinylated vitronectin); type: binding; conditions: read-out: IIb/IIIa IC50; tested form: TFA

By UniProt entry, the sequences of proteins in these tests, tags left out. Residues count along the entry.
UniProt P08514, 32-887 limits assumed: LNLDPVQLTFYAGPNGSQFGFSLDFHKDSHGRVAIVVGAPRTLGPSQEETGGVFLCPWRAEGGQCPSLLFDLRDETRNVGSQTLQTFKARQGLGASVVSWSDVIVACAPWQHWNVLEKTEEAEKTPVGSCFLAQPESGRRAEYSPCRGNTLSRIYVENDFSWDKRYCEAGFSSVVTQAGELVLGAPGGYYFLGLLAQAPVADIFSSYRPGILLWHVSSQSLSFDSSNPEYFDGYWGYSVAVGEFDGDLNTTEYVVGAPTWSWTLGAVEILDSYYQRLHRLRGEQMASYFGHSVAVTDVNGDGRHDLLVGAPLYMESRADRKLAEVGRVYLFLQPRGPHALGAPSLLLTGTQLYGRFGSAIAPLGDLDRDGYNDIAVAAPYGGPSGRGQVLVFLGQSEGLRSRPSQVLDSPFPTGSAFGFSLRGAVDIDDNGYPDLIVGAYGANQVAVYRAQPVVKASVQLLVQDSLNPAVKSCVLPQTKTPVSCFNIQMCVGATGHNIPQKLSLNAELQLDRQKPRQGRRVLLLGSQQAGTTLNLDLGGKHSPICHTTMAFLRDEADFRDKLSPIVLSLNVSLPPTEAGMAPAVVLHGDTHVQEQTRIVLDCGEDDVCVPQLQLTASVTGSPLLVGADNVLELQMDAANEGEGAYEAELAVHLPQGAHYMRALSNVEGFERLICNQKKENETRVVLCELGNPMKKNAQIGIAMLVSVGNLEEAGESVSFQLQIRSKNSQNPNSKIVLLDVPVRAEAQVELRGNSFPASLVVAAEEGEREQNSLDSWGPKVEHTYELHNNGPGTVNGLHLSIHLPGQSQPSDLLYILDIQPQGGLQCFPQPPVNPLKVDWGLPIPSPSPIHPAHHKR
UniProt P08514, 891-1039 limits assumed: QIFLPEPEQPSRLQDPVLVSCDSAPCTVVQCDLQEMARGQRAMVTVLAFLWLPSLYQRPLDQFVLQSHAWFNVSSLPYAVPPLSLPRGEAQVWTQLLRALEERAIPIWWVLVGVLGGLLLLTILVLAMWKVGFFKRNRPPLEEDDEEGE

CCOC(=O)CC(NC(=O)CNC(=O)c1cccc(NC(=N)N)c1)c1ccc(Cl)s1 (racemic)
IC50 [1]: 3.49 nM | IC50 [2]: 280 nM

Source: patent publication US6831199B1, “Pyrimidine compounds and derivatives thereof” (G. D. Searle & Co., priority 1995, dated 2004)
